Key:
DOR = DOR (Homo sapiens, UniProt P41143); experiment: Primary binding (PDSP); conditions: for DOR mean % inhibition: 10 μM, N = 4 determinations, negative = stimulation of binding; for DOR: Table 7, rounded values of Table 4
NOP = NOP (Homo sapiens, UniProt P41146); experiment: Functional NOP agonism, Tango agonist assay; format: cell-based; conditions: for NOP Tango Agonist: Table 7, values of Table 6; for NOP Tango Agonist, percent efficacy relative to cognate agonist: test compound at 10 micromolar

The chains behind the UniProt entries cited, without tags or fusion partners. Where a name states a change or a piece, a line headed by the entry shows the natural chain unless it says otherwise.
UniProt P41143, whole entry, looked up: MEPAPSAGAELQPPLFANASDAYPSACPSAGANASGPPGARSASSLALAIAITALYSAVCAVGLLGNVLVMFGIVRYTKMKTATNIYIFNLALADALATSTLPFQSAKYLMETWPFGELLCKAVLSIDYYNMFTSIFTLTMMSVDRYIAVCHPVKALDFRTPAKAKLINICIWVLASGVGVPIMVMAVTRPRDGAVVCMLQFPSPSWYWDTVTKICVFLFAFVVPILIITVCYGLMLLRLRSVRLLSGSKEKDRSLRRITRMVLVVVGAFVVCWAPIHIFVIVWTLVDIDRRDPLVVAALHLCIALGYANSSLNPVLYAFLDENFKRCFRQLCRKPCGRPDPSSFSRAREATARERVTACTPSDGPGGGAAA
UniProt P41146: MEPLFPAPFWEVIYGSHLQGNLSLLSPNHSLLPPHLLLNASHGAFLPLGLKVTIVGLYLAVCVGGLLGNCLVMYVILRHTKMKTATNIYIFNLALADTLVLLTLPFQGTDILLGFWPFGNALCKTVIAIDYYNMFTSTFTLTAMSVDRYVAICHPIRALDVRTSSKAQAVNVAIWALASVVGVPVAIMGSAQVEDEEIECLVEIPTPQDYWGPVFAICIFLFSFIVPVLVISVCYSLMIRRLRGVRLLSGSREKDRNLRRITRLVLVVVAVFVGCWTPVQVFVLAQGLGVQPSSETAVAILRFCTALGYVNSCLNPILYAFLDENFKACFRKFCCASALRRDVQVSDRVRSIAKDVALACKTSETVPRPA

SMILES	DOR mean % inhibition (DOR)	DOR (DOR)	NOP Tango Agonist (NOP)	NOP Tango Agonist, percent efficacy relative to cognate agonist (NOP) [%]
CN(C(=O)C1CCCN1Cc1ccccc1)[C@@H](CN1CCCC1)c1ccccc1 (stereo partly shown)	2.5(AVE) %	3	−2.7	−2.7
CN(C(=O)Cc1cccc2occc12)[C@@H](CN1CCCC1)c1ccccc1	−1.8(AVE) %	−2	0.9	0.9
CN(C(=O)Cc1cccc2occc12)[C@@H](CN1CCCCC1)c1ccccc1	−2.82%	−3	−0.2	−0.2
Cc1cccc(CC(=O)N(C)[C@@H](CN2CCCCC2)c2ccccc2)c1	−1.783%	−2	−1.9	−1.9
O=C(CCN1CCC2(CCc3ccccc32)CC1)N[C@H]1CCCC[C@@H]1N1CCCC1	−8.01%	−8	−3.6	−3.6
CN(C(=O)Cc1ccccc1)[C@H](CN1CCCC1)c1ccccc1	12.9266%	13	−3.4	−3.4
CN(C(=O)Cc1ccc2occc2c1)[C@@H](CN1CCCCC1)c1ccccc1	−1.577%	−2	1.9	1.9
CN(C(=O)Cc1cccc2occc12)[C@H](CN1CCCCC1)c1ccccc1	23.357%	23	−4.2	−4.2
O=C(Cc1ccc(Cl)c(Cl)c1)N1CCCC[C@H]1CN1CCCC1	26.4623%	26	−4.4	−4.4
C1CCCC(CN2CCCC[C@H]2CN2CCCC2)CCC1	−3.894%	−4	−4.8	−4.8
CN(C(=O)Cc1ccccc1)[C@H](CN1CCCCC1)c1ccccc1	5.249%	5	−1	−1
CN(C(=O)c1ccc(Cl)cc1)[C@H](CN1CCCCC1)c1ccccc1	−3.8126%	−4	−3.3	−3.3
CN(C(=O)Cc1ccc(Cl)c(Cl)c1)[C@@H](CN1CCCCC1)c1ccccc1	12.4(AVE) %	12	0.7	0.7
CN1CC(C(=O)N(C)[C@H]2CCCC[C@@H]2N2CCCC2)CC1=O (stereo partly shown)	−16.8821%	–	−5.2	−5.2
O=C(C1CCCN1Cc1ccccc1)N1CCCC[C@H]1CN1CCCC1 (stereo partly shown)	−9.301%	−9	−5	−5
CN(C(=O)C1CCCN1Cc1ccccc1)[C@H](CN1CCCCC1)c1ccccc1 (stereo partly shown)	−0.757%	−1	−3.2	−3.2

SMILES	DOR mean % inhibition (DOR)	DOR (DOR)	NOP Tango Agonist (NOP)	NOP Tango Agonist, percent efficacy relative to cognate agonist (NOP) [%]
CN(C(=O)Cc1ccccc1)[C@@H](CN1CCCCC1)c1ccccc1	−2.394%	−2	−2.6	−2.6
CN1CC(C(=O)N[C@H]2CCCC[C@@H]2N2CCCC2)CC1=O (stereo partly shown)	−10.5096%	−11	−4.9	−4.9
CN(C(=O)Cc1cccc2occc12)[C@H]1CCCC[C@@H]1N1CCCC1	21.21%	21	−2.6	−2.6
CN(C(=O)c1ccc(Cl)cc1)[C@@H](CN1CCCC1)c1ccccc1	4.2(AVE) %	4	1.7	1.7
CN(C(=O)Cc1ccccc1)[C@@H](CN1CCCC1)c1ccccc1	43.8(AVE) %	44	−4.3	−4.3
Cc1cccc(CC(=O)N(C)[C@H](CN2CCCC2)c2ccccc2)c1	36.7658%	37	−2.6	−2.6
O=C(/C=C/c1ccoc1)N1CCCC[C@H]1CN1CCCC1	16.3096%	16	−2.6	−2.6
CN(C(=O)Cc1ccc2occc2c1)[C@H](CN1CCCCC1)c1ccccc1	25.7477%	26	−3.3	−3.3
CCn1c(=O)n([C@H]2CCCC[C@@H]2N2CCCC2)c2ccccc21	0.2677%	0	−3.9	−3.9
CN(C(=O)C1CCCN1Cc1ccccc1)[C@H](CN1CCCC1)c1ccccc1 (stereo partly shown)	4.06%	4	−2.8	−2.8
CN1CC(C(=O)N(C)[C@@H](CN2CCCCC2)c2ccccc2)NC1=O (stereo partly shown)	20.2474%	20	−5	−5
O=C(NCCCN1CCCC[C@H]1CN1CCCC1)C1CCCN1Cc1ccccc1 (stereo partly shown)	−6.974%	−7	−3	−3
O=C(Cc1cccc2occc12)N1CCCC[C@H]1CN1CCCC1	2.785%	3	−0.2	−0.2
CCn1c(=O)n([C@@H]2CCCC[C@H]2N2CCCC2)c2ccccc21	3.265%	3	−1.9	−1.9
CN1CC(C(=O)N(C)[C@H](CN2CCCCC2)c2ccccc2)CC1=O (stereo partly shown)	20.9079%	21	−3.5	−3.5
CN1CC(C(=O)N2CCCC[C@H]2CN2CCCC2)CC1=O (stereo partly shown)	8.356%	8	−1.2	−1.2

Source: patent publication US10167295B2 (priority 2013, dated 2019)
